Test results from ChEMBL document CHEMBL1123034 (J Med Chem, 1985).

Biological target: Neuronal acetylcholine receptor (Rattus norvegicus) (UniProt P04757+P09483+P12389+P12390+P12392+P43144+Q9JLB5+P12391+P43143+P20420+Q05941)

Structure (SMILES): CN1CCCC(O)C1 (stereo unspecified)
- Mean enhancement of binding: 5.2
